Literature values, collected in patent US9669014B2, “Small molecule inhibitors of superoxide dismutase expression” (Northwestern University, priority 2014, dated 2017).

Test system: CDK5, CDK2, CDK1, CDK4
Conditions: cited from earlier work

SMILES: O=C1NC(=O)C(c2cn(CCCO)c3ncccc23)=C1c1cnccn1
- Comments: other kinases inhibited: Also inhibits CDK4
